Experimental findings from patent US20250375530A1 (ALMAC DISCOVERY, published 2025) are described below.

Chains of the proteins cited; added tags and fusions are not shown. A line that says so, or that is headed by a name, gives the form on record, which may keep a tag or linker.
human ROR1-Fc (CHO), one chain, as listed by the source limits assumed: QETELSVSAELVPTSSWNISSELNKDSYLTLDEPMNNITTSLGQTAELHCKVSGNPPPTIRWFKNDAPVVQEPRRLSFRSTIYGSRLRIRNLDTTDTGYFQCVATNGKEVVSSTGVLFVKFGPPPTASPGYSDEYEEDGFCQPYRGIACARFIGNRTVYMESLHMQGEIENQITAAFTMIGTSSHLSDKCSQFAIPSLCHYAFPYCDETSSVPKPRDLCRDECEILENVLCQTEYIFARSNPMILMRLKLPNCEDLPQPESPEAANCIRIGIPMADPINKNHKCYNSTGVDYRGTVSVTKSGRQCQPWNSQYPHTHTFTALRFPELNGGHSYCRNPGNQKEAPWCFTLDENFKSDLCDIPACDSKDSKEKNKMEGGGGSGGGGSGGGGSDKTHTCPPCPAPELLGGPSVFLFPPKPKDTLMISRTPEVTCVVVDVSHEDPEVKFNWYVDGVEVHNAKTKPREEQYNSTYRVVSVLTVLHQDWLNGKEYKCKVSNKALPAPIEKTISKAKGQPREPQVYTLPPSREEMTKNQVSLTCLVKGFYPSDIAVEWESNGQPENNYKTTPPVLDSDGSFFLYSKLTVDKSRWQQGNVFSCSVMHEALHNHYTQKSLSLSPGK

A word on the Kd: it is the equilibrium constant for the complex coming apart.

Test [1] deals with T1, human ROR1-Fc (CHO) (human).
T1 construct: also called hROR1-Fc; huROR1-Fc
Kind of test: BLI, hROR1-hFc immobilised. A general note: BLI is a label-free optical method that tracks binding on a fibre tip over time.

In test [2] the target is T1, human ROR1-Fc (CHO). Kind of test: BLI, hROR1.

B1: P3A1G1AE3-G3CPG4 (linker PGVQPAPGGGGS) (VNAR, not shown: small tags and cut ends)
chain: TRVDQSPSSLSASVGDRVTITCVLTGTRYGLYSTYWYRKNPGSSDEERISISGRYSESVNKGTKSFTLTISSLQPEDSATYYCRAREARHPWLRQWYDGAGTKVEIKPGVQPAPGGGGSTRVDQSPSSLSASVGDRVTITCVLTDANYGLAATYWYRKNPGSSNKERISISGRYSESVNKGTMSFTLTISSLQPEDSATYYCRAYPWGAGAPYNVQWYDGAGTKVEIK
notes: Bi-paratopic VNAR-VNAR fusion
For the molecule B1, the affinity with human ROR1-Fc (CHO) [1], expressed as Kd, was 0.58 nM.

B2: G3CPG4-P3A1G1AE3 (linker PGVQPAPGGGGS) (VNAR, not shown: small tags and cut ends)
chain: TRVDQSPSSLSASVGDRVTITCVLTDANYGLAATYWYRKNPGSSNKERISISGRYSESVNKGTMSFTLTISSLQPEDSATYYCRAYPWGAGAPYNVQWYDGAGTKVEIKPGVQPAPGGGGSTRVDQSPSSLSASVGDRVTITCVLTGTRYGLYSTYWYRKNPGSSDEERISISGRYSESVNKGTKSFTLTISSLQPEDSATYYCRAREARHPWLRQWYDGAGTKVEIK
notes: Bi-paratopic VNAR-VNAR fusion
Regarding B2, in the test with human ROR1-Fc (CHO) [1], the Kd came to 0.53 nM.

B3: G3CPG4-P3A1G1AE3 (linker PGVQPCPGGGGGS) (VNAR, not shown: small tags and cut ends)
chain: TRVDQSPSSLSASVGDRVTITCVLTDANYGLAATYWYRKNPGSSNKERISISGRYSESVNKGTMSFTLTISSLQPEDSATYYCRAYPWGAGAPYNVQWYDGAGTKVEIKPGVQPCPGGGGGSTRVDQSPSSLSASVGDRVTITCVLTGTRYGLYSTYWYRKNPGSSDEERISISGRYSESVNKGTKSFTLTISSLQPEDSATYYCRAREARHPWLRQWYDGAGTKVEIK
notes: Bi-paratopic fusion with Cys-containing linker
Take B3: binding with human ROR1-Fc (CHO) [2] was characterised by a dissociation constant (Kd) of 0.28 nM.

B4: P3A1G1AE3-G3CPG4 (linker PGVQPCPGGGGGS) (VNAR, not shown: small tags and cut ends)
chain: TRVDQSPSSLSASVGDRVTITCVLTGTRYGLYSTYWYRKNPGSSDEERISISGRYSESVNKGTKSFTLTISSLQPEDSATYYCRAREARHPWLRQWYDGAGTKVEIKPGVQPCPGGGGGSTRVDQSPSSLSASVGDRVTITCVLTDANYGLAATYWYRKNPGSSNKERISISGRYSESVNKGTMSFTLTISSLQPEDSATYYCRAYPWGAGAPYNVQWYDGAGTKVEIK
notes: as for B3
For the molecule B4, the Kd with human ROR1-Fc (CHO) [2] is 0.24 nM.
